{"source": "patent US12065507B2", "about": "(priority 2020, dated 2024)", "key": {"[1]": {"details": "read-out: Kd, heroin; from IC50 against 2 nM [H^3]-morphine, 20 or 60 nM antibody"}, "[2]": {"details": "read-out: Kd, hydrocodone; from IC50 against 2 nM [H^3]-morphine, 20 or 60 nM antibody"}, "[3]": {"details": "read-out: Kd, 6-MAM; from IC50 against 2 nM [H^3]-morphine, 20 or 60 nM antibody"}}, "note": "Where two headings read alike, the source gives them in different places.", "data": [{"molecule": "UK6Mab02: fully humanized antibody (H1L3) designed from Ab13, with human IgG1 heavy and kappa light constant regions (antibody, V domains shown, H1 (UK6Mab02) Heavy Chain; L3 (UK6Mab02) - Light chain) VH: EVQLVQSGAEVKKPGASVKISCKASGYTFTSYWIEWVKQAPGKGLEWIGEINPSGGSTIYAEKFQGRATFTADTSTSTAYMELSSLRSEDTAVYYCARWVLDYYGMDYWGQGTSLTVSS VL: QAVVTQEPSLTVSPGGTVTLTCGSSTGAVTSGNYANWVQQKPGQAFRGLIGGTNTRSSGVPDRFSGSLLGGKAALTISGAQPEDEAEYYCALWYSNKLVFGGGTKLTVL", "values": [{"measurement": "Kd", "setting": "[1]", "result": 11.8, "unit": "nM"}, {"measurement": "Kd", "setting": "[2]", "result": 39.3, "unit": "nM"}, {"measurement": "Kd", "setting": "[3]", "result": 11.9, "unit": "nM"}]}]}
